Drawing on PubChem BioAssay (NCATS), this text covers Potency, activity change, negative = inhibition and activation for 14 molecules.

Chains of the proteins cited; added tags and fusions are not shown. Lines headed by an entry give the natural chain unless they say otherwise; changes in a name come on top.
UniProt P10635, whole entry, looked up: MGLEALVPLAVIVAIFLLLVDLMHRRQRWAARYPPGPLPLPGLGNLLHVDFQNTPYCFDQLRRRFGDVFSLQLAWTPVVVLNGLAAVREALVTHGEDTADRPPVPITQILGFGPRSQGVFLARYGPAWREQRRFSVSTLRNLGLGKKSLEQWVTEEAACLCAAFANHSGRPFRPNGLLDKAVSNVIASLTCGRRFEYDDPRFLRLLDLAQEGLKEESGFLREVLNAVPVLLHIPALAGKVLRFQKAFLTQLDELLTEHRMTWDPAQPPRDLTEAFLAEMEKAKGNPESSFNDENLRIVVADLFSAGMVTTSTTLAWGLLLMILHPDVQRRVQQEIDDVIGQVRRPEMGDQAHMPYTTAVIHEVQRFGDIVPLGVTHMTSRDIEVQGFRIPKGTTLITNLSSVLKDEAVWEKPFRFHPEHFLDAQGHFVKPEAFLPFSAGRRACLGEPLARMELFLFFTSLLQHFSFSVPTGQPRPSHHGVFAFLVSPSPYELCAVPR
UniProt P11712, whole entry, looked up: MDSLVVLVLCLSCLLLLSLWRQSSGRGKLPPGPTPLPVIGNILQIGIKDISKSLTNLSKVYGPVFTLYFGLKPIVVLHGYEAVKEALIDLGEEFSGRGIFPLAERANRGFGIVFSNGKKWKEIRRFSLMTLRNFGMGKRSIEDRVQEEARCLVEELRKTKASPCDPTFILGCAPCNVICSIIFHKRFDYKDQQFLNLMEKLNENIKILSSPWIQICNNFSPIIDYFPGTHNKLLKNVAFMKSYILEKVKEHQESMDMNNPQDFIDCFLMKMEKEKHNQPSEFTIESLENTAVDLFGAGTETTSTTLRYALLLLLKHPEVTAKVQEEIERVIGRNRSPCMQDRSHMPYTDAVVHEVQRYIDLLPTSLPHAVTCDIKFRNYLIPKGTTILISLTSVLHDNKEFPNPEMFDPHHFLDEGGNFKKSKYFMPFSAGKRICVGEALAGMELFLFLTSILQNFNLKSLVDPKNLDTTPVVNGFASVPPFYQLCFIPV
UniProt P27695, whole entry, looked up: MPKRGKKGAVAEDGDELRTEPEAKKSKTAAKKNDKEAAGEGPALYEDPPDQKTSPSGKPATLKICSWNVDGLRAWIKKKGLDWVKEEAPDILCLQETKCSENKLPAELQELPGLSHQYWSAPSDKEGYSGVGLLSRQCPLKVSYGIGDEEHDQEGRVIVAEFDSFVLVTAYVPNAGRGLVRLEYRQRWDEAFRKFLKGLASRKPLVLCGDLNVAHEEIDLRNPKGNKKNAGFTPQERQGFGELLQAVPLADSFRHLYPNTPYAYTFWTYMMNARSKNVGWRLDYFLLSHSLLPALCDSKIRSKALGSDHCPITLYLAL
UniProt P21728, whole entry, looked up: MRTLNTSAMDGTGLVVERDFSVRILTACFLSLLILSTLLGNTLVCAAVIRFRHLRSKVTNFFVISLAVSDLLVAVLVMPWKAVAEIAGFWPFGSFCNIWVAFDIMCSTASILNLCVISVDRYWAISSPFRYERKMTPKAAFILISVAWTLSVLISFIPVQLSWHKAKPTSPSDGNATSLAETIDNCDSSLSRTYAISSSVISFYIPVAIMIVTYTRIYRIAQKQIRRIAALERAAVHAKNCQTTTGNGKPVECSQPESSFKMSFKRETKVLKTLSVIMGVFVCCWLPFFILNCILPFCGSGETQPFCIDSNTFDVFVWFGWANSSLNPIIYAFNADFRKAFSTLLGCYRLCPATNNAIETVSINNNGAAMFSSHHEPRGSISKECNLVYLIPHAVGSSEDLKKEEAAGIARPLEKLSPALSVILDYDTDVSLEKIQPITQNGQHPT
UniProt P05177, whole entry, looked up: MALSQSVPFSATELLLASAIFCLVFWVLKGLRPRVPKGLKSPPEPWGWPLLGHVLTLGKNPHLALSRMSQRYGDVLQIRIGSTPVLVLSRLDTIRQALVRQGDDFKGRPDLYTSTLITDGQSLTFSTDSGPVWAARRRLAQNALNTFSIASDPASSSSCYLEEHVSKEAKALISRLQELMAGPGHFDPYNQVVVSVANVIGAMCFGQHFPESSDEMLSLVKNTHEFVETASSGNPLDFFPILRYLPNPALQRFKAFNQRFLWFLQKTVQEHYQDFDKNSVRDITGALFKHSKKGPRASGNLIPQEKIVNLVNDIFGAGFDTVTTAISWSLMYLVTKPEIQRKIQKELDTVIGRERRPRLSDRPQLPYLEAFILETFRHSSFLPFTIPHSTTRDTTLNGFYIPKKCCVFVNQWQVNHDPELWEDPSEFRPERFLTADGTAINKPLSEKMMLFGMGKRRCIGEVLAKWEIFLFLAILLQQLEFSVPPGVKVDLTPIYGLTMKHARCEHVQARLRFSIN
UniProt P33261, whole entry, looked up: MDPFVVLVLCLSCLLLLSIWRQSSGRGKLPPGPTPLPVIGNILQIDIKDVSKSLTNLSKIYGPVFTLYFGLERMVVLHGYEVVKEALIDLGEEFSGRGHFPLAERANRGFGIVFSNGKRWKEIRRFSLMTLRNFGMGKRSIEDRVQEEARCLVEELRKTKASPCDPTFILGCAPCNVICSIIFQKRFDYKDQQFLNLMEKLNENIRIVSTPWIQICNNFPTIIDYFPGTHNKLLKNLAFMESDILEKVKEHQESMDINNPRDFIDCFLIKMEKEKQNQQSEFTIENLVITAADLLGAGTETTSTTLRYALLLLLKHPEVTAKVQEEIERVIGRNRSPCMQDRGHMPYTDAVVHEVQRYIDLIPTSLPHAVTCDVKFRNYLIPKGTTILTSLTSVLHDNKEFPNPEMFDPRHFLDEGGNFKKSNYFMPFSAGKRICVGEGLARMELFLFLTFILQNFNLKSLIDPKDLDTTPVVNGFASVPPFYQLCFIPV
UniProt Q12809: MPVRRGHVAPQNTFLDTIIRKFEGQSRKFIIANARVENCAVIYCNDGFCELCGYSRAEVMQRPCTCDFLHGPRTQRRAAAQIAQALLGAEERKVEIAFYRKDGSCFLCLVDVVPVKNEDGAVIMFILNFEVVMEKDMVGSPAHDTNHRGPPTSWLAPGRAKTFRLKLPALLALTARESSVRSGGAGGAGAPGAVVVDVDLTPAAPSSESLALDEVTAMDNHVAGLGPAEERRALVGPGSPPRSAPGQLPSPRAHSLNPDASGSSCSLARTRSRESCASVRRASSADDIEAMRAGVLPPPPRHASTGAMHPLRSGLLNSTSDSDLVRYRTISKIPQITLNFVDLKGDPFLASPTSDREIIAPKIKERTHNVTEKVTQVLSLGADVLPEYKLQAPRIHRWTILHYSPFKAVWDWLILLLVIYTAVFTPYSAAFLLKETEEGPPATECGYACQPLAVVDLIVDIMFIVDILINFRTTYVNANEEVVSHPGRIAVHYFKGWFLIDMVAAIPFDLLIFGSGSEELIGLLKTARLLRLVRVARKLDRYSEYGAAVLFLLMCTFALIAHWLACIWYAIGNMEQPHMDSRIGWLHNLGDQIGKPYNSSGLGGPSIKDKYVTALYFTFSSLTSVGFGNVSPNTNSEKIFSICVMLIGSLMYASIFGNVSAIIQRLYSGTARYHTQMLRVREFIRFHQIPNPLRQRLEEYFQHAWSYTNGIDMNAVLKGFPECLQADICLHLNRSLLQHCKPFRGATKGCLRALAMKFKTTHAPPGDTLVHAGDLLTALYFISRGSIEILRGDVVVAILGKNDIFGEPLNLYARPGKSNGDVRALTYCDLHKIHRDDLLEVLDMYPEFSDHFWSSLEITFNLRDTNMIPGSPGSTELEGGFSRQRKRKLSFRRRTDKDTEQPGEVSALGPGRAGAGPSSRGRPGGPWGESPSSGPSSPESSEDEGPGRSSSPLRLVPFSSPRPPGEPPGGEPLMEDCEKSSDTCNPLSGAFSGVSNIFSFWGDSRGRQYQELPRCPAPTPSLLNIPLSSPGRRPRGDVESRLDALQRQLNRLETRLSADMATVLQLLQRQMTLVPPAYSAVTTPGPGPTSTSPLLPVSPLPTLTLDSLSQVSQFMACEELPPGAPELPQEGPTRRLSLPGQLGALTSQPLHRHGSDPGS

For some of these results: This list holds what a sample rich in hits left over. Records with an inconclusive call do not appear. Only a part is listed here, and it is no random draw. Calls of active or inactive are those of the source. Unless noted, calls follow the shape of the dose curve; as a rule, active = well fitted curve in the direction sought with a large enough effect; inconclusive = small, poorly fitted or top-dose-only effect, or another doubt; inactive = no such curve, though single readings can be large; an effect the other way counts as inactive or inconclusive.

For assay [1], the target named is Cytochrome P450 2D6 (Homo sapiens) (UniProt P10635). Kind of assay: Cytochrome P450 family 2 subfamily D member 6 (CYP2D6) small molecule antagonists: luciferase biochemical (cell-free) qHTS assay (AID 1645840; active = well fitted curve in the direction sought with a large enough effect in the repeat runs; an effect the other way counts as inactive or inconclusive; also: potency is read from the fitted curve at half-maximal effect; nearly all actives have a fitted effect of over 55% in size). The settings on record: P450-Glo CYP2D6 enzyme, luciferin luminescence, 1 h. Put shortly:
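P450-Glo CYP2D6 system: proluciferin substrate converted by enzyme to luciferin, read by luminescence proportional to activity. Enzyme-substrate mix with compound 10 min at room temperature, then NADPH regeneration 1 h before detection reagent.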

The target of assay [2] is Cytochrome P450 2C9 (Homo sapiens) (UniProt P11712). Briefly: Cytochrome P450 family 2 subfamily C member 9 (CYP2C9) small molecule antagonists: luciferase biochemical (cell-free) qHTS assay (AID 1645842; active = well fitted curve in the direction sought with a large enough effect in the repeat runs; an effect the other way counts as inactive or inconclusive; also: potency is read from the fitted curve at half-maximal effect; nearly all actives have a fitted effect of over 55% in size). The settings on record: P450-Glo CYP2C9 enzyme assay, luciferin luminescence.
Assay [3] addresses Endonuclease 4 (Escherichia coli (strain K12)) (UniProt P0A6C1). Kind of assay: Counterscreen for APE1 Inhibitors: qHTS Assay for Inhibitors of Endonuclease IV (AID 2565).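 Also: plate controls were uninhibited enzyme wells for no effect and no enzyme buffer wells for full effect.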 The following applies: E. coli Endo IV, fluorogenic AP-site DNA cleavage; at 57.1 µM (top of the series). In outline: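 Conditions: 2 nM enzyme, 50 nM TAMRA/BHQ-2 substrate, pH 7.5 Tris buffer with 2 mM MgCl2, RT. Compound preincubation 15 min; readout three fluorescence reads 60 s apart, third-minus-first.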

Assay [4] addresses DNA repair nuclease/redox regulator APEX1 (Homo sapiens) (UniProt P27695). Briefly: Confirmation qHTS Assay for Inhibitors of the Human Apurinic/apyrimidinic Endonuclease 1 (APE1) (AID 2572). Also: potency is read from the fitted curve at half-maximal effect; nearly all actives have a fitted effect of over 30% in size. The following applies: purified APE1, fluorogenic abasic-site DNA cleavage. In outline: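 Cleavage of a tetrahydrofuran abasic site in a 50 nM (final) TAMRA/BHQ-2 duplex was tracked by rising fluorescence, measured in kinetic mode; reaction progress computed from the first-to-third read difference.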

The target in assay [5] is Cytochrome P450 2C9 (Homo sapiens) (UniProt P11712). Kind of assay: qHTS Assay for Inhibitors and Substrates of Cytochrome P450 2C9 (AID 883). Also: potency is read from the fitted curve at half-maximal effect; nearly all actives have a fitted effect of over 60% in size. The settings on record: recombinant CYP2C9, luciferin-H luminescence, 60 min.
Assay [6] has the same target. Kind of assay: qHTS for inhibitors of CYP2C9 against the NCATS DSHEA and TCM libraries (AID 1919973). Also: potency is read from the fitted curve at half-maximal effect. The following applies: recombinant CYP2C9 enzyme activity, luminescence. In outline:
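Each CYP isoform and its pro-luciferin substrate, at isoform-specific final concentrations, were preincubated 15 min at RT with substances. NADPH regeneration solution (1x) started a 30-45 min reaction, and P450-Glo luminescence was read.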

In assay [7] the target is D(1A) dopamine receptor (Homo sapiens) (UniProt P21728). Kind of assay: HTS Assay for Allosteric Agonists of the Human D1 Dopamine Receptor: Primary Screen for Agonists (AID 488981). Also: 0% is about no effect. The settings on record: Inducible HEK293 T-REx D1 cells, calcium-flux fluorescence, 180 s kinetic; at 41.8 µM (top of the series). Put shortly:
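Tetracycline-induced HEK293 Trex D1 cells with forced coupling to calcium, loaded with no-wash calcium dye; kinetic fluorescence read 180 s after compound addition for agonism, then a further 180 s after an EC20 dopamine challenge for potentiation.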

The target is the same in assay [8]. Kind of assay: HTS Assay for Allosteric Agonists of the Human D1 Dopamine Receptor: Primary Screen for Antagonists (AID 488983).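 Also: calcium flux response to an EC80 dopamine challenge measured with no-wash dye; potency is read from the fitted curve at half-maximal effect; nearly all actives have a fitted effect of over 65% in size.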 The settings on record: D1 receptor cell assay, antagonist mode, qHTS titration. In outline: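 Calcium-flux read-out in inducible HEK293 T-REx cells expressing D1, dye-loaded 30–90 min at room temperature. Kinetic reads: 180 s after compound (agonist phase), then 180 s after an EC80 dopamine challenge.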

The nature of assay [9]: HTS Assay for Allosteric Antagonists of the Human D2 Dopamine Receptor: Hit Validation in HTRF (AID 624455).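 Also: stable D1 dopamine receptor cell line scored for blocking the D1 response; potency is read from the fitted curve at half-maximal effect.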 The settings on record: Cells stably expressing D1 dopamine receptor, inhibition mode. Put shortly: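 Inhibition of the D1-mediated response was measured by HTRF. Cells used were a line stably expressing the D1 dopamine receptor.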
The target of assay [10] is Cytochrome P450 1A2 (Homo sapiens) (UniProt P05177). Kind of assay: p450-cyp1a2 (AID 410; calls by dose curve; also: potency is read from the fitted curve at half-maximal effect). The settings on record: recombinant CYP1A2, luciferin-ME demethylation, luminescence. Put shortly:
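Luminescent demethylation readout: Luciferin-ME (100uM, equal to Km) turned over by 20nM CYP1A2 for 60 min at room temperature after NADPH regeneration addition, following 10 min compound preincubation. Normalization used 57 uM furafylline as full inhibition.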

Assay [11] deals with Cytochrome P450 2C19 (Homo sapiens) (UniProt P33261). Briefly: qHTS Assay for Inhibitors and Substrates of Cytochrome P450 2C19 (AID 899). Also: potency is read from the fitted curve at half-maximal effect; nearly all actives have a fitted effect of over 60% in size. The settings on record: recombinant CYP2C19, luciferin-H EGE luminescence.
Assay [12] deals with Voltage-gated inwardly rectifying potassium channel KCNH2 (Homo sapiens) (UniProt Q12809). Briefly: qHTS Assay for Small Molecule Inhibitors of the Human hERG Channel Activity (AID 588834).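 Also: potency is read from the fitted curve at half-maximal effect; lower thallium flux fluorescence means stronger hERG block; nearly all actives have a fitted effect of over 50% in size.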 The following applies: U2OS BacMam hERG, FluxOR thallium flux fluorescence.

With `CN(C)c1ccc2nc3ccc(=[N+](C)C)cc-3sc2c1`, the Potency is active: 389 nM in [1] and active: 692 nM in [2].
`O=c1c(O)c(-c2cc(O)c(O)c(O)c2)oc2cc(O)cc(O)c12`: the activity change, negative = inhibition in [3] was inactive: -4.93%. For the same molecule, in [4], the Potency was active: 7080 nM.
As for `COc1cc(N)c(Cl)cc1C(=O)NC1CCN(CCCOc2ccc(F)cc2)CC1OC` (configuration not stated), the Potency in [1] was active: 77.6 nM.
`C#C[C@]1(O)CC[C@@H]2[C@H]3CCC4=Cc5oncc5C[C@]4(C)[C@@H]3CC[C@@]21C`: in assay [5], the Potency was active: 1260 nM.
For the molecule `O=c1c(O)c(-c2ccc(O)c(O)c2)oc2cc(O)cc(O)c12`, the Potency in assay [5] is active: 7940 nM; in assay [2], active: 13800 nM; in assay [6], active: 4470 nM.
Take `OC(Cn1cncn1)(Cn1cncn1)c1ccc(F)cc1F`: in assay [2], the Potency was active: 11000 nM.
For the molecule `CNCC(O)c1ccc(O)c(O)c1` (configuration not stated), in assay [7], the activation is inactive: 29.5%. The Potency is active: 3980 nM in assay [8] and active: 326 nM in assay [9].
Regarding `C#C[C@]1(O)CC[C@H]2[C@@H]3CCC4=Cc5oncc5C[C@]4(C)[C@H]3CC[C@@]21C`, the Potency in assay [2] was active: 1380 nM.
Take `CNC[C@H](O)c1ccc(O)c(O)c1`: the figures for the Potency in assay [8] and in [9] were active: 2510 nM and active: 164 nM, respectively.
For `COc1cc(NC(C)CCCN)c2ncccc2c1` (configuration not stated), the Potency in assay [1] is active: 5490 nM.
As to `COc1cc(N[C@@H](C)CCCN)c2ncccc2c1`, the Potency in assay [10] is active: 200 nM; in assay [11], active: 3980 nM.
With `C#C[C@@]1(O)CC[C@H]2[C@H]3CCC4=Cc5oncc5C[C@]4(C)[C@@H]3CC[C@@]21C`, in assay [5], the Potency is active: 2000 nM.
Consider `O=C1Cc2cc(CCN3CCN(c4nsc5ccccc45)CC3)c(Cl)cc2N1`, for which the Potency in assay [12] is active: 1410 nM.
For the molecule `OCCN1CCN(CC/C=C2/c3ccccc3Sc3ccc(C(F)(F)F)cc32)CC1`, the Potency in assay [8] was active: 112 nM.
